Assay results published in US7097988B1 (priority 1993, dated 2006).

By UniProt entry, the sequences of proteins in these tests, tags left out. Where a name states a change or a piece, a line headed by the entry shows the natural chain unless it says otherwise.
UniProt P32300, whole entry, looked up: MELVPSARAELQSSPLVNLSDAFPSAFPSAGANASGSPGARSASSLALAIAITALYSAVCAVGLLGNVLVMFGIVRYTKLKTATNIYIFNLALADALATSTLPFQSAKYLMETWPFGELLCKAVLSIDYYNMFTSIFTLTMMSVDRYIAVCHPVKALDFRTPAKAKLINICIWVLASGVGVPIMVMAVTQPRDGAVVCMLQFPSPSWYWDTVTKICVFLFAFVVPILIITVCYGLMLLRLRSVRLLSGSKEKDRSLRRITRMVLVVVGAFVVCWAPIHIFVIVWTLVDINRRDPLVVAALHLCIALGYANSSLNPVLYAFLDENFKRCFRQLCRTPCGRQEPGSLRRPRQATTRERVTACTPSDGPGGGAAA
UniProt P35372, whole entry, looked up: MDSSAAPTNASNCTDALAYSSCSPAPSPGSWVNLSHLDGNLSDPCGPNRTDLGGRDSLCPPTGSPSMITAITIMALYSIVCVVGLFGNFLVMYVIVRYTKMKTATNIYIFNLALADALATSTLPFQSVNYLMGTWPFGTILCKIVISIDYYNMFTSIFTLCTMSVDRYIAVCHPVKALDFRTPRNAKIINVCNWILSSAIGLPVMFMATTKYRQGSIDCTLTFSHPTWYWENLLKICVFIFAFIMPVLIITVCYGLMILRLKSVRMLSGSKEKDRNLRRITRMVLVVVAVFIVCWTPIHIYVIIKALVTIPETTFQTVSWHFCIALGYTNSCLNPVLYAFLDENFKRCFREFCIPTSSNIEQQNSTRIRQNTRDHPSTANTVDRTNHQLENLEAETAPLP
UniProt P35370: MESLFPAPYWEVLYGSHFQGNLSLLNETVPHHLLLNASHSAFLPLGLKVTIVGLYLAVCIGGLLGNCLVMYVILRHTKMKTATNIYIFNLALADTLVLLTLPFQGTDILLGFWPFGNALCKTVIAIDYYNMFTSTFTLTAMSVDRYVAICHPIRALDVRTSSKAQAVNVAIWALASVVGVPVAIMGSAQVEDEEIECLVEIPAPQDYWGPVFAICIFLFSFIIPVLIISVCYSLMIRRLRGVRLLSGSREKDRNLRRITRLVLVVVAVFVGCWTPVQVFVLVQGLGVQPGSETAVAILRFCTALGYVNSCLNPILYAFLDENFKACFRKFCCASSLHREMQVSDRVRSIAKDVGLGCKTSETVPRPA

Tests used:
mouse δ-opioid receptor = mouse δ-opioid receptor (Mus musculus, UniProt P32300); conditions: cited from earlier work
human μ opioid receptor = human μ opioid receptor (Homo sapiens, UniProt P35372); conditions: saturation binding
[1] = target: T1, novel member of the opioid receptor gene family (SEQ ID NO: 17) (Rattus norvegicus, UniProt P35370); test: [3H]diprenorphine binding, COS-7 membranes transfected with the putative (novel) opioid receptor; conditions: one nanomolar [3H]diprenorphine
[2] = target: T1, novel member of the opioid receptor gene family (SEQ ID NO: 17); conditions: one micromolar agonist

Structure (SMILES)	Kd (mouse δ-opioid receptor) [nM]	Bmax (human μ opioid receptor)	Hill coefficients (human μ opioid receptor)	specific binding (in words) [1]	induction of potassium conductance (in words) [2]
CO[C@]12CC[C@@]3(C[C@@H]1C(C)(C)O)[C@H]1Cc4ccc(O)c5c4[C@@]3(CCN1CC1CC1)[C@H]2O5	3.8	549±26 fmol/mg of membrane protein	0.97±0.01	did not detect any specific binding	–
CN(C(=O)Cc1ccc(Cl)c(Cl)c1)[C@H]1CC[C@@]2(CCCO2)C[C@@H]1N1CCCC1	–	–	–	–	no potassium conductance was induced
